Measurements taken from BindingDB's records for doi:10.1021/jm980001q (G.D. Searle And, 1998).

Molecular target: T1, Glycylpeptide N-tetradecanoyltransferase (Candida albicans (strain SC5314 / ATCC MYA-2876), UniProt P30418)
T1 sequence (P30418 whole entry): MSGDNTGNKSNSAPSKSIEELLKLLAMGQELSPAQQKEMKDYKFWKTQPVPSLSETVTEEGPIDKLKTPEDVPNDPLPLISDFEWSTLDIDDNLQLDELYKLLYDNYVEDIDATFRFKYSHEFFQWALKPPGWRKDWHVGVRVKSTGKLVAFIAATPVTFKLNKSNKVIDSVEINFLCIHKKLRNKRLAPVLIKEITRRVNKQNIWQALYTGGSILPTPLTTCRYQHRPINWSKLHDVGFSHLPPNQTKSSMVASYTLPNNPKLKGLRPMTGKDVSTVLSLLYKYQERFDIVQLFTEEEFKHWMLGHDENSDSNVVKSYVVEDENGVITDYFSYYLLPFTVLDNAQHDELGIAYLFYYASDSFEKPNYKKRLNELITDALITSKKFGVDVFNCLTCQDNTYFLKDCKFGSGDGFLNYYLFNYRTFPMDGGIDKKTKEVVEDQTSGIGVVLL
Assay: The Compound was tested for the inhibition potency against Candida albicans N-myristoyltransferase (NMT) and reported as apparent Ki

Ki: 31 nM
Compound: Cc1nccn1CCCCc1ccc(CC(=O)N[C@@H](CO)C(=O)N[C@@H](CCCCN)C(=O)NCCC2CCCCC2)cc1 [(S)-6-Amino-2-[(S)-3-hydroxy-2-(2-{4-[4-(2-methyl-imidazol-1-yl)-butyl]-phenyl}-acetylamino)-propionylamino]-hexanoic acid (2-cyclohexyl-ethyl)-amide]
